From patent US8772304B2, “Benzimidazole inhibitors of leukotriene production” (Boehringer Ingelheim International GmbH, priority 2010, dated 2014)

Tested on: synthesis of LTB4 in human whole blood
Test: human whole blood LTB4 production inhibition assay
Type: cell-based
Details: heparinized human whole blood, calcimycin 20 μM stimulation, plasma LTB4; read-out: hWB IC50
Method: Compounds are additionally tested in a human whole blood assay to determine their ability to inhibit the synthesis of LTB4 in a cellular system. Compounds are combined with heparinized human whole blood and incubated for 15 minutes at 37° C. Calcimycin (20 μM final, prepared in phosphate-buffered saline, pH 7.4) is then added and the mixture is incubated for another 30 minutes at 37° C. The samples are centrifuged for 5 min at low speed (1500×g) and the plasma layer is removed. Plasma LTB4 concentrations are then measured using an antibody-based homogenous time-resolved fluorescence method (CisBio, Bedford, Mass.).

An IC50 of 270 nM was found for CC(C)(C)n1c(-c2ccnc(Br)c2)nc2cc(-c3cnc(N)nc3)ccc21 [Example 19, 5-[2-(2-Bromo-pyridin-4-yl)-1-tert-butyl-1H-benzimidazol-5-yl]-pyrimidin-2-ylamine] in this work.
